Results: patent US12594289B2, “Potentiation of antibiotic effect” (The University of North Carolina at Chapel Hill, priority 2017, dated 2026)

System: S. aureus strain HG003

| SMILES | induction of tolerance of S. aureus to ciprofloxacin | protection of S. aureus against tobramycin killing (tobramycin tolerance) |
| --- | --- | --- |
| Cn1c2cccc(=O)c-2nc2ccccc21 [pyocyanin] | capable of inducing tolerance | – |
| CCCCCCCc1cc(O)c2ccccc2[n+]1[O-] [HQNO, 2-heptyl-4-hydroxyquinoline N-oxide] | capable of inducing tolerance | full protection |
